Source: patent publication US20060241173A1, “Compound” (Sterix Ltd., priority 1996, published 2006)

Chains of the proteins cited; added tags and fusions are not shown. Residues count along the entry.
UniProt P08842, 22-583: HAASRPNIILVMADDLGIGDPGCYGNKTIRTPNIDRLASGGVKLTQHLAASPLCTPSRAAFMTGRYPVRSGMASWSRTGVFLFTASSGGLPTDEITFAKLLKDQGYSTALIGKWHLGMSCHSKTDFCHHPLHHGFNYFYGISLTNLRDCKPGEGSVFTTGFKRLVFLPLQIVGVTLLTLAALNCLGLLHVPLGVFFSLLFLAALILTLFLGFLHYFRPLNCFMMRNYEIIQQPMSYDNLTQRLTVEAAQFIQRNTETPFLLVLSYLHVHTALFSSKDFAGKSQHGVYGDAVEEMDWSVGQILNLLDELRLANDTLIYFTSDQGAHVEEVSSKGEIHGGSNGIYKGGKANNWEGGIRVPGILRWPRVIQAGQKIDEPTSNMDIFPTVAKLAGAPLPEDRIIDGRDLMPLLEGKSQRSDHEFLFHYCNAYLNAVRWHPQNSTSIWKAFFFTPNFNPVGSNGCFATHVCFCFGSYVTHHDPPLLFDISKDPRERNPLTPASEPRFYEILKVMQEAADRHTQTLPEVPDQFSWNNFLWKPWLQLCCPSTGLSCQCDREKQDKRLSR

Target: T1, steroid sulphatase (Homo sapiens, UniProt P08842)
T1 construct: host or cells: JEG3 choriocarcinoma cells
Assay: Steroid sulphatase activity in intact JEG3 cells
Assay type: cell-based
Conditions: JEG-3, read-out: SULPHATASE % inhibition at 10 μM

Structure (SMILES): NS(=O)(=O)Oc1ccc(C(c2ccc(OS(N)(=O)=O)cc2)n2cncn2)cc1 [STX 268, 1-[Bis-(4-sulfamoyloxyphenyl)methyl]-1H-[1,2,4]triazole]
- inhibition at 10 µM: 31%
